Source: patent publication US6518480B1 (priority 1996, dated 2003)
Several values for one entry are separate records, joined by “and”; a condition that tells them apart may be missing. Equal entries are not always repeated.

Chains of the proteins cited; added tags and fusions are not shown. Lines headed by an entry give the natural chain unless they say otherwise; changes in a name come on top.
UniProt P41145: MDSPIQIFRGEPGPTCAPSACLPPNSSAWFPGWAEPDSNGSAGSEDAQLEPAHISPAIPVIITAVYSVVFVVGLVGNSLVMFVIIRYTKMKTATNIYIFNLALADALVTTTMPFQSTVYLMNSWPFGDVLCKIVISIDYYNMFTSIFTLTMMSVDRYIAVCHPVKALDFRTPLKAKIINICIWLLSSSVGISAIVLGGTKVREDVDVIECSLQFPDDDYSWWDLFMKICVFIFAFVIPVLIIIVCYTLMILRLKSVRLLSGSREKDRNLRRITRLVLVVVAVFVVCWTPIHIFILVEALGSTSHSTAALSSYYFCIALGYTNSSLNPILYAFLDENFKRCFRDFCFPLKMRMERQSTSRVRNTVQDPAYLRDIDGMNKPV

Tests used:
Wild-type KOR = Wild-type KOR (Homo sapiens, UniProt P41145); test: Ligand binding to wild-type KOR expressed in COS-7 and CHO-KI cells
OR1-expressing mice = test: EKG after spiradoline injection in OR1-expressing double transgenic mice; conditions: 2 mg intraperitoneally
control mice = test: EKG after spiradoline injection in control mice (littermate with only the MHCα-tTA transgene); conditions: control mice following spiradoline injection
[1] = test system: OR2-expressing rat 1a fibroblasts
OR2 [2] = target: OR2 (Homo sapiens, UniProt P41145, G198V/DELINS201-226PRDGAVVCMLQFPSPSWYWDTVT/E297Q, form not given); test: Ligand binding to the RASSL OR2 expressed in COS-7 and CHO-KI cells; conditions: read-out: Ki, OR2 (unit inferred); spiradoline binding
OR2 [3] = test: as above; set-up: species or system human
OR1 [4] = test: Ligand binding to the RASSL OR1 expressed in COS-7 and CHO-KI cells; set-up: species or system human
OR1 [5] = target: OR1 (Homo sapiens, UniProt P41145, G198V/DELINS201-226PRDGAVVCMLQFPSPSWYWDTVT, form not given); test: as above; conditions: read-out: Ki, OR1 (unit inferred); spiradoline binding
[6] = relative to binding to wild-type KOR

Structure (SMILES): CN(C(=O)Cc1ccc(Cl)c(Cl)c1)C1CCC2(CCCO2)CC1N1CCCC1 (stereo not shown)
- Ki (Wild-type KOR; read-out: Ki, human KOR (unit inferred), spiradoline binding): 1.13 nM and 1.32 nM
- Fold decrease in binding, Wild-type KOR (Wild-type KOR; [6]): 1 fold
- Conduction on EKG after injection (OR1-expressing mice; more apparent in the 5-minute recordings): apparent conduction defect consistent with atrioventricular heart block
- Heart rate on EKG after injection (OR1-expressing mice; recordings a few seconds after injection, anesthetized double transgenic mice): markedly decreased heart rate
- Atrioventricular block or other changes in EKG wave form (control mice): not observed
- Increase in cell proliferation over exposure to the selected natural ligand dynorphin ([1]; OR2-expressing rat 1a fibroblasts, 3H-thymidine incorporation): 20-50 fold
- Growth Signal, decrease (summary), OR2 ([1]; summary table, ↓ = decrease versus wild-type KOR): NC
- Ki (OR2 [2]): 5.65 nM
- Change in binding affinity of OR2 relative to native human KOR (OR2 [3]; OR2 versus native human KOR): relatively small change
- Fold decrease in binding, OR2 (OR2 [3]; [6]): 4.3 fold
- Change in binding affinity of OR1 relative to native human KOR (OR1 [4]; OR1 versus native human KOR): relatively small change
- Fold decrease in binding, OR1 (OR1 [4]; [6]): 4.8 fold
- Ki (OR1 [5]): 6.29 nM
